# According to patent US10188770B2, “Dental implant having enhanced early stability and method for manufacturing same” (OSSTEMIMPLANT CO., LTD., priority 2014, dated 2019):
# Test system: implant-bone interface
# Assay: Removal torque of coated implants just after coating and after 3-year storage
# Format: in vivo
# Conditions: storage period 3 year; implants coated with 10 ml solution of 40 μg bisphosphonate and 1 μg rhBMP-2
# Description: In order to confirm the long-time storage stabilities of implant, osseointegration at implant-bone interface were measured via removal torque.
# Each dental implant was coated with various bisphosphonates as described example 1 and its removal torque was measured just after coating step and 3-year self-storage, respectively.
# Similarly, osseointegration at implant-bone interface were measured via removal torque for dental implants wherein the osteoclast activity inhibitor coating film further comprises a bone growth factor (BMP-2) as shown in Table 2.
structure (smiles),measurement,value
O=P(O)(O)C(O)(Cc1cccnc1)P(=O)(O)O [Resendronate],Removal torque,108.1 ± 11.6
